Values quoted from earlier work as cited in patent publication US12233205B2, “Thermal modulation of an inhalable medicament” (priority 2014, dated 2025).

Conditions: in vivo, im

For “Interferon alfa 2b: listed among biosimilar molecules suitable for delivery with the device”, the bioavailability is listed as 80-90%.
